Test results taken from US7727980B2, “Tricyclic androgen receptor modulator compounds and methods” (priority 2001, dated 2010).

By UniProt entry, the sequences of proteins in these tests, tags left out. Where a name states a change or a piece, a line headed by the entry shows the natural chain unless it says otherwise.
UniProt P10275: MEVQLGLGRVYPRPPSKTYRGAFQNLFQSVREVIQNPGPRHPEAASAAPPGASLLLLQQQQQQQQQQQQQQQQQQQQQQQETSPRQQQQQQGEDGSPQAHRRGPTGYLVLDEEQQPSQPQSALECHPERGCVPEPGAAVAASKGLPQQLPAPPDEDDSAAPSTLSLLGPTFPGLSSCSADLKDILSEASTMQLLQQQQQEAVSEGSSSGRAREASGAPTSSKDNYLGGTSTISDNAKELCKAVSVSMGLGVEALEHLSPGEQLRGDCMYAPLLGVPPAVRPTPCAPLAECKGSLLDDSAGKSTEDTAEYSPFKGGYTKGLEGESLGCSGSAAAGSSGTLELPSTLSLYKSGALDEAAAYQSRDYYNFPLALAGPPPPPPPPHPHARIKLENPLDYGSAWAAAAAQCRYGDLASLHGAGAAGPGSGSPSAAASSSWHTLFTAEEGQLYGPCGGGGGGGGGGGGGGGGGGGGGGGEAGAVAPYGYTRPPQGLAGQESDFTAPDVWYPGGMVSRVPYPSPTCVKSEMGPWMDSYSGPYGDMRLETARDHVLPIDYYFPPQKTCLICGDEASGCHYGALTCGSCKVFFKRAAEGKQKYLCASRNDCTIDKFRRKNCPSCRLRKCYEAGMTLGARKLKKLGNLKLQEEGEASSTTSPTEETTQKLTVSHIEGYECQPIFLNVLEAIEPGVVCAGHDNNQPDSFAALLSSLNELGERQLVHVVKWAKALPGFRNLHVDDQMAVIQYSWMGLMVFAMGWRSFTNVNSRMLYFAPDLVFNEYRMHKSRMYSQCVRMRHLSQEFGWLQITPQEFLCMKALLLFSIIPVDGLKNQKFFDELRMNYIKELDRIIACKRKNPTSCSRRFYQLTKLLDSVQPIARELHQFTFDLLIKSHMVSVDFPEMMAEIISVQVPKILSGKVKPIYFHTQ

Biological target: human AR (Homo sapiens, UniProt P10275)
Assay: Co-transfection assay, AR agonist activity, CV-1 cells
Assay type: cell-based
Parameters: expressed in transfected cells; host or cells: CV-1 cells (African green monkey kidney fibroblasts), transient transfection with pRShAR
Settings: percent maximal response relative to reference agonist DHT

CC(C)(O)C(=O)Nc1ccc([N+](=O)[O-])c(C(F)(F)F)c1 [HO-Flut, 2-Hydroxyflutamide, reference compound]
AR Agonist CV-1 Cells Efficacy (%): na (na = not active (i.e. efficacy of <20 and potency of >10,000))
